Test results reported in US9029508 (dated 2015).

Protein sequences, listed by entry. Tags and fused reporters are not part of them. Chains listed by the source or under a name are the forms on record and can include a tag or linker.
UniProt P15692, other isoform, or with tags, fused parts or gaps: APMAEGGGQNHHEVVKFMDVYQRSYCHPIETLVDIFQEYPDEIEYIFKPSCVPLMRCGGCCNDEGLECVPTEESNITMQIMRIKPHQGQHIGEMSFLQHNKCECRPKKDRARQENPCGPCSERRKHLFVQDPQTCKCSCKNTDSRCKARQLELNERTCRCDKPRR

B1: DVD466 VEGF arm (antibody, V domains shown)
VH: EVQLVESGGGLVQPGGSLRLSCAASGFTISDYWIHWVRQAPGKGLEWVAGITPAGGYTYYADSVKGRFTISADTSKNTAYLQMNSLRAEDTAVYYCARFVFFLPYAMDYWGQGTLVTVSS
VL: DIQMTQSPSSLSASVGDRVTITCRASQDVSTAVAWYQQKPGKAPKLLIYSASFLYSGVPSRFSGSGSGTDFTLTISSLQPEDFATYYCQQSYTTPPTFGQGTKVEIKR
B2: DVD462 VEGF arm (antibody, V domains shown)
VH: B1 VH
VL: B1 VL
B3: DVD496 VEGF arm (antibody, V domains shown)
VH: B1 VH
VL: B1 VL
B4: DVD471 VEGF arm (antibody, V domains shown)
VH: B1 VH
VL: B1 VL
B5: DVD465 VEGF arm (antibody, V domains shown)
VH: B1 VH
VL: B1 VL
B6: DVD525 VEGF arm (antibody, V domains shown)
VH: B1 VH
VL: B1 VL
B7: DVD519 VEGF arm (antibody, V domains shown)
VH: B1 VH
VL: B1 VL
B8: DVD495 VEGF arm (antibody, V domains shown)
VH: B1 VH
VL: B1 VL
B9: DVD483 VEGF arm (antibody, V domains shown)
VH: B1 VH
VL: B1 VL
B10: DVD508 VEGF arm (antibody, V domains shown)
VH: B1 VH
VL: B1 VL
B11: DVD531 VEGF arm (antibody, V domains shown)
VH: B1 VH
VL: B1 VL
B12: DVD507 VEGF arm (antibody, V domains shown)
VH: B1 VH
VL: B1 VL
B13: DVD477 VEGF arm (antibody, V domains shown)
VH: B1 VH
VL: B1 VL
B14: DVD455 VEGF arm (antibody, V domains shown)
VH: B1 VH
VL: B1 VL
B15: DVD444 VEGF arm (antibody, V domains shown)
VH: B1 VH
VL: B1 VL
B16: DVD456 VEGF arm (antibody, V domains shown)
VH: B1 VH
VL: B1 VL
B17: DVD484 VEGF arm (antibody, V domains shown)
VH: B1 VH
VL: B1 VL
B18: DVD490 VEGF arm (antibody, V domains shown)
VH: B1 VH
VL: B1 VL
B19: DVD502 VEGF arm (antibody, V domains shown)
VH: B1 VH
VL: B1 VL
B20: DVD489 VEGF arm (antibody, V domains shown)
VH: B1 VH
VL: B1 VL
B21: DVD478 VEGF arm (antibody, V domains shown)
VH: B1 VH
VL: B1 VL
B22: DVD513 VEGF arm (antibody, V domains shown)
VH: B1 VH
VL: B1 VL
B23: DVD443 VEGF arm (antibody, V domains shown)
VH: B1 VH
VL: B1 VL
B24: DVD461 VEGF arm (antibody, V domains shown)
VH: B1 VH
VL: B1 VL
B25: DVD514 VEGF arm (antibody, V domains shown)
VH: B1 VH
VL: B1 VL
B26: DVD520 VEGF arm (antibody, V domains shown)
VH: B1 VH
VL: B1 VL
B27: DVD472 VEGF arm (antibody, V domains shown)
VH: B1 VH
VL: B1 VL
B28: DVD449 VEGF arm (antibody, V domains shown)
VH: B1 VH
VL: B1 VL
B29: DVD501 VEGF arm (antibody, V domains shown)
VH: B1 VH
VL: B1 VL
B30: DVD526 VEGF arm (antibody, V domains shown)
VH: B1 VH
VL: B1 VL
B31: DVD532 VEGF arm (antibody, V domains shown)
VH: B1 VH
VL: B1 VL
B32: DVD450 VEGF arm (antibody, V domains shown)
VH: B1 VH
VL: B1 VL

target: VEGF (human, UniProt P15692); test: ELISA

Row | EC50 | Binder
1 | 2.61 nM | B1
2 | 8 nM | B2
3 | 108 nM | B3
4 | 30.1 nM | B4
5 | 396 nM | B5
6 | 21.8 nM | B6
7 | 77.2 nM | B7
8 | 70 nM | B8
9 | 46.1 nM | B9
10 | 7.88 nM | B10
11 | 60.4 nM | B11
12 | 34.9 nM | B12
13 | 41.7 nM | B13
14 | 26.7 nM | B14
15 | 2.44 nM | B15
16 | 1.63 nM | B16

Row | EC50 | Binder
17 | 4.84 nM | B17
18 | 6.7 nM | B18
19 | 3.25 nM | B19
20 | 181 nM | B20
21 | 2.72 nM | B21
22 | 58.5 nM | B22
23 | 611 nM | B23
24 | 10.4 nM | B24
25 | 67.4 nM | B25
26 | 248 nM | B26
27 | 9.22 nM | B27
28 | 15.6 nM | B28
29 | 45.2 nM | B29
30 | 96.2 nM | B30
31 | 28.9 nM | B31
32 | 12.1 nM | B32
